Laboratory results: US6881414B2, “Mild cosmetic composition with stabilized retinoids” (Unilever Home & Personal Care USA, division of Conopco, Inc., priority 2000, dated 2005)

Target: T1, LRAT (Bos taurus, UniProt Q9BGL2)
T1 construct: followed by approximately 15 μg of RPE microsomal protein; tissue W. L. Lawson Co; host or cells: bovine retinal pigment epithelium microsomes
T1 sequence (Q9BGL2 1-230): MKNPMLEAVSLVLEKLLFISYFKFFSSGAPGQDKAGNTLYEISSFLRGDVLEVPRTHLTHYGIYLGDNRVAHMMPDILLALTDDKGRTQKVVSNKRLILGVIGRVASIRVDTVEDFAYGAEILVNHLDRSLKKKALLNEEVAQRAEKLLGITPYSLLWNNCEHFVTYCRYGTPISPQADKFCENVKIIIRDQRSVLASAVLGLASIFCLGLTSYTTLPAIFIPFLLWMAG
Test: LRAT activity assay, RPE microsomes (to identify B1)
Type: biochemical, bovine
Settings: for % Inhibition LRAT (100 μm): compound 100 μm

% Inhibition LRAT (100 μm) | % Inhibition LRAT (10 μm) (compound 10 μm) | Structure (SMILES)
28% | – | C[C@H]1[C@H](C)CC[C@]2(C(=O)O)CC[C@]3(C)C(=CC[C@@H]4[C@@]5(C)CC[C@H](O)C(C)(C)[C@@H]5CC[C@]43C)[C@H]12 [Urosolic Acid]
71% | – | CC(C)(O)CCCC1=CCC(C=O)CC1 (stereo not drawn) [Lyral]
– | 12% | CCCCCCCCCCCCCCCC(=O)NCCO [Palmitamide-MEA]
